Data from patent publication US11866720B2, “Transgenic or non-transgenic plants with mutated protoporphyrinogen oxidase having increased tolerance to herbicides” (priority 2013, dated 2024).
“And” between values parts separate entries of the source, which are not always exact repeats. Equal values may be shown once.

Test system: transgenic Arabidopsis thaliana plants expressing wildtype or mutated PPO
Experiment: Greenhouse tolerance test of transgenic T1 Arabidopsis plants (phytotox / injury rating 0-100)
Format: in vivo
Settings: repetitions 1, 2

| Compound | phytotox value, scale 0-100 (AMATU_PPO2 L397D, 75 g ai/ha, listed as BAS 850H) | phytotox value, scale 0-100 (AMATU_PPO2 L397D, 300 g ai/ha, listed as BAS 850H) | phytotox value, scale 0-100 (AMATU_PPO2 F420V, 200 g ai/ha, listed as Kixor) |
| --- | --- | --- | --- |
| C#CCN1C(=O)C(F)(F)Oc2cc(F)c(-n3c(=O)n(C)c(=S)n(C)c3=O)cc21 | 70 and 80 and 60 | 90 and 100 and 70 |  |
| CC(C)N(C)S(=O)(=O)NC(=O)c1cc(-n2c(=O)cc(C(F)(F)F)n(C)c2=O)c(F)cc1Cl [Saflufenacil, saflufenacil] |  |  | 90 and 80 |
